This test deals with NF-κB. The experiment in a line: NF-κB luciferase reporter assay in LPS-stimulated RAW 264.7 macrophages. Format: cell-based. Particulars: read-out: NF-kB inhibitory activity IC50 μM; RAW 264.7 cells with 3×NFkB response element luciferase reporter, 2 h pretreatment, 200 ng/ml LPS for 3 h.

“((2R,5S)-5-(4-amino-2-oxopyrimidin-1(2H)-yl)-1,3-oxathiolan-2-yl)methyl methyl (2-((4Z,7Z,10Z,13Z,16Z,19Z)-docosa-4,7,10,13,16,19-hexaenamido)ethyl)phosphoramidate”: the IC50 (as a rule, the point on the concentration scale where inhibition reaches its midpoint) was 50 to 200 µM. As for “((2R,5S)-5-(4-amino-2-oxopyrimidin-1(2H)-yl)-1,3-oxathiolan-2-yl)methyl phenyl (2-((5Z,8Z,11Z,14Z,17Z)-icosa-5,8,11,14,17-pentaenamido)ethyl)phosphoramidate”, the IC50 lay in the range of 50 to 200 µM.
